The values that follow come from patent publication US11168095B2, “ASK1 inhibiting agents” (BIOGEN MA INC., priority 2017, dated 2021).

The chains behind the UniProt entries cited, without tags or fusion partners. Residues count along the entry.
UniProt Q99683, 649-946: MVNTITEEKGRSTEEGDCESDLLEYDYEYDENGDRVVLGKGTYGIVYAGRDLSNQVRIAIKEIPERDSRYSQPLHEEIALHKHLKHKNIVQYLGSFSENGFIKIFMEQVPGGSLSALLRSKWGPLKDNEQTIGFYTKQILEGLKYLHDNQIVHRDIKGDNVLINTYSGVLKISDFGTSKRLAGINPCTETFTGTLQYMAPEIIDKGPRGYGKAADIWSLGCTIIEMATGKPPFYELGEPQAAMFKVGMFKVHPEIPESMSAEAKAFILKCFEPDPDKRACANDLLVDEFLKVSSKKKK

The target of assay [1] is ASK1 T838 auto phosphorylation in HEK-293T cells (Homo sapiens (Human), UniProt Q99683). In words: ASK1 (AUTO PHOS T838) assay, MSD format. Type of assay: cell-based. The method, then: The plates were incubated at 37° C. overnight. Media on plates was changed to OPTI-MEM, serum free media and cells were transfected with 9 μg of ASK1-V5 tagged full length plasmid using Lipofectamine 2000 (Invitrogen) and the plates were incubated at 37° C. overnight. Cells were trypsinized, counted on Nexcellometer and plated into 96 well tissue culture plates with 100,000 cells/well and 200 μL media. Cells were incubated for 4 hr at 37° C. then ASK1 compounds were added using a HP 300e. Compounds were tested at 20 μM with 3 fold, 10 point dilution points then incubated for 1 hr at 37° C. A lysis buffer (Cell Signaling) was prepared with protease and phosphatase inhibitor and maintained at 4° C. until use. Media from cells was discarded and 120 μL of cold lysis buffer was added to the cells, the plate was shaken 4° C. for 1 hr. Lysate was mixed using Apricot liquid handler; aspirating up and down 16 times at high speed using 50 μL volume. […] Plates were then incubated on a plate shaker overnight at 4° C. […] Plates were immediately read on a MSD Instrument Reader where chemoluminecense signal was measured. Data was analyzed using Graph Pad or Genedata, the data was normalized and plotted, % activity versus log of compound concentration. […]

Another assay deals with GST-hASK1 (Homo sapiens (Human), UniProt Q99683). The assay is described as follows: ASK1 TR-FRET assay. The conditions noted are these: 5 nM GST-hASK1, 100 μM ATP, 2 μM STK Substrate 3. It is filed as biochemical. As for the experimental part:
The protein kinase activity of 5 nM GST-hASK1(Life Technologies PV4011) was assayed with 100 μM ATP and 2 μM of HTRF biotinylated STK Substrate 3 (CisBio Kit 62ST3PEJ), at ambient temperature in 25 mM Hepes, pH 7.5, 50 mM NaCl, 10 mM MgCl2, 0.02% Brij-35, 1 mM DTT, and 1% DMSO.
After a 10 minute pre-incubation, ASK1 protein kinase activity was initiated by addition of 10 μL of 300 μM ATP.
(In general: In TR-FRET formats the signal depends on donor and acceptor labels being close together.)

As usually defined, the IC50 is the point on the concentration scale where inhibition reaches its midpoint. In the case of `O=C1Nc2cccc(n2)-c2nncn2CCCCOc2ccc(-c3ccccn3)cc21` [Example 25, 5^5-(Pyridin-2-yl)-1^4H-6-oxa-3-aza-2(2,6)-pyridina-1(3,4)-triazola-5(1,2)-benzenacyclodecaphan-4-one], the IC50 in assay [1] is 1000 to 10000 nM; against GST-hASK1, under 100 nM.
